Measured values from patent publication US20190307754A1, “PDE9 INHIBITORS FOR TREATMENT OF PERIPHERAL DISEASES” (IMARA, INC., priority 2016, published 2019).

Assay: Blood Brain Barrier penetration (brain-to-plasma distribution)
Settings: male CD mice, 10 mg/kg subcutaneous

## O=c1[nH]c(CN2CC(Oc3ccncc3)C2)cn2c(-c3ccc(F)cc3)ncc12
30 min
  Brain/Plasma ratio after 30 minutes: 0.06
  Plasma concentration after 30 minutes: 30 min.: 719 ng/mL
120 min
  Brain/Plasma ratio after 120 minutes: 0.08
  Plasma concentration after 120 minutes: 120 min.: 86 ng/mL
